Legend:
[1] = system: spontaneously hypertensive rats (SHR); assay: Metabolic parameters in metabolic cages during chronic treatment; assay type: in vivo, rat; conditions: mean ± SEM
Protocol: (§1) Systolic and diastolic blood pressure (SBP and DBP, respectively) and heart rate (HR) were measured in conscious unrestrained rats by telemetry technique, once a week for 24 h. 24 hour observations in metabolic cages (Tecniplast S. p.A. Buguggiate, Italy) were performed weekly. The diuresis, weight of feces, food and water intake were measured; urine and blood samples were collected on day 0, 7th and 14th, and were centrifuged at 1200 g (blood for 15 min and urine for 5 min), then the samples were stored at –80°C until analysis.
(§2) On day 0 all animals received saline (0.9% NaCl) and then, for 14 consecutive days, the substance tested. Chymostatin (CH, 2 mg/kg/day) was dissolved in DMSO and then diluted with PBS (final concentration of DMSO was 0.15%). Peptides RIY (7.5 mg/kg/day) and VWIS (12.5 mg/kg/day) were dissolved in saline (0.9% NaCl, S). The substances were administered through the femoral vein during 10 min in the volume of 0.5 ml to young SHR (infusion rate: 3 ml/h) and 1 ml to adult rats (infusion rate: 6 ml/h). Control rats received solvents (either DMSO or saline) in the same volume.
(§3) Urine volume was determined by gravimetric method. Sodium and potassium concentration in urine and plasma were measured by flame photometry (PFP7/C, Jenway Ltd, Stone, United Kingdom). Urine and plasma osmolality were measured by freezing point depression (Osmomat® 030 M, Gonotec, Berlin, Germany). These parameters were used to determine the excretion rates of total solutes (UosmV), sodium (UNaV) and potassium (UKV). Commercially available ELISA kits were used to measure nitric oxide metabolites (NOx, SunRed, Shanghai) and albumin (Albumin, ICL, Portland) concentration in urine. Excretion rate of NOx (UNOxV) and albumin (UAE) were calculated.

[2] = system: spontaneously hypertensive rats (SHR); assay: Plasma and urine parameters during chronic treatment; assay type: in vivo, rat; conditions: mean ± SEM
Protocol: as §1, §2, §3

ACE = conditions: ref Marczak et al. (2003); cited from earlier work
[3] = adult SHR (SHR-16), day 0 (baseline)
[4] = adult SHR (SHR-16), day 7 of daily iv CH 2, RIY 7.5, VWIS 12.5 mg/kg/day
[5] = adult SHR (SHR-16), day 7 of daily iv treatment
[6] = adult SHR (SHR-16), day 14 of daily iv CH 2, RIY 7.5, VWIS 12.5 mg/kg/day
[7] = adult SHR (SHR-16), day 14 of daily iv treatment
[8] = young SHR (SHR-6), day 0 (baseline), CH n=8-10, RIY n=5, VWIS n=5-6
[9] = young SHR (SHR-6), day 0 (baseline)
[10] = young SHR (SHR-6), day 7 of daily iv CH 2, RIY 7.5, VWIS 12.5 mg/kg/day
[11] = young SHR (SHR-6), day 7 of daily iv treatment
[12] = young SHR (SHR-6), day 14 of daily iv CH 2, RIY 7.5, VWIS 12.5 mg/kg/day
[13] = young SHR (SHR-6), day 14 of daily iv treatment

Diuresis [1, 3]: 6.4 ± 0.2 µL/min | Faeces [1, 3]: 10±1 g/24 h | Food intake [1, 3]: 20±2 g/24 h | Water intake [1, 3]: 28±2 g/24 h | Diuresis [1, 5]: 8.5 ± 1.8 µL/min | Faeces [1, 5]: 11±1 g/24 h | Food intake [1, 5]: 22±2 g/24 h | Water intake [1, 5]: 35±2 g/24 h | Diuresis [1, 7]: 10.4 ± 1.4 µL/min | Faeces [1, 7]: 13±1 g/24 h | Food intake [1, 7]: 21±1 g/24 h | Water intake [1, 7]: 37±3 g/24 h | Diuresis [1, 9]: 5.3 ± 0.8 µL/min | Faeces [1, 9]: 11±1 g/24 h | Food intake [1, 9]: 16±1 g/24 h | Water intake [1, 9]: 23±2 g/24 h | Diuresis [1, 11]: 9.0 ± 1.3 µL/min | Faeces [1, 11]: 16±1 g/24 h | Food intake [1, 11]: 19±1 g/24 h | Water intake [1, 11]: 26±4 g/24 h | Diuresis [1, 13]: 9.4 ± 1.2 µL/min | Faeces [1, 13]: 15±1 g/24 h | Food intake [1, 13]: 21±1 g/24 h | Water intake [1, 13]: 33±3 g/24 h | Plasma osmolality ([2]; adult SHR (SHR-16), day 0 (baseline), CH n=5-8, RIY n=5-6, VWIS n=5-6): 306±4 mOsm/l | Plasma K+ concentration [2, 3]: 3.67 ± 0.20 mmol/L | Plasma Na+ concentration [2, 3]: 121.8 ± 3.4 mmol/L | Potassium excretion [2, 3]: 0.93 ± 0.09 µmol/min | Sodium excretion [2, 3]: 1.03 ± 0.08 µmol/min | Total solute excretion [2, 3]: 10.38±1.82 µOsm/min | Plasma osmolality [2, 4]: 304±1 mOsm/l | Plasma K+ concentration [2, 5]: 3.81 ± 0.14 mmol/L | Plasma Na+ concentration [2, 5]: 128.8 ± 2.4 mmol/L | Potassium excretion [2, 5]: 0.85 ± 0.22 µmol/min | Sodium excretion [2, 5]: 0.68 ± 0.16 µmol/min | Total solute excretion [2, 5]: 10.41±1.87 µOsm/min | Plasma osmolality [2, 6]: 296±3 mOsm/l | Plasma K+ concentration [2, 7]: 3.23 ± 0.27 mmol/L | Plasma Na+ concentration [2, 7]: 131.3 ± 2.0 mmol/L | Potassium excretion [2, 7]: 1.12 ± 0.18 µmol/min | Sodium excretion [2, 7]: 0.86 ± 0.27 µmol/min | Total solute excretion [2, 7]: 9.67±1.41 µOsm/min | Plasma osmolality [2, 8]: 298±1 mOsm/l | Plasma K+ concentration [2, 9]: 4.43 ± 0.15 mmol/L | Potassium excretion [2, 9]: 0.72 ± 0.24 µmol/min | Sodium excretion [2, 9]: 0.63 ± 0.24 µmol/min | Total solute excretion [2, 9]: 4.84±1.13 µOsm/min | Plasma osmolality [2, 10]: 298±2 mOsm/l | Plasma K+ concentration [2, 11]: 4.54 ± 0.11 mmol/L | Plasma Na+ concentration [2, 11]: 129.6 ± 4.0 mmol/L | Potassium excretion [2, 11]: 0.65 ± 0.09 µmol/min | Sodium excretion [2, 11]: 0.64 ± 0.16 µmol/min | Total solute excretion [2, 11]: 4.85±1.11 µOsm/min | Plasma osmolality [2, 12]: 290±2 mOsm/l | Plasma K+ concentration [2, 13]: 4.39 ± 0.18 mmol/L | Plasma Na+ concentration [2, 13]: 124.2 ± 4.3 mmol/L | Potassium excretion [2, 13]: 0.71 ± 0.40 µmol/min | Sodium excretion [2, 13]: 0.68 ± 0.19 µmol/min | Total solute excretion [2, 13]: 6.44±2.35 µOsm/min
Compound: CC[C@H](C)[C@H](NC(=O)[C@@H](N)CCCNC(=N)N)C(=O)N[C@@H](Cc1ccc(O)cc1)C(=O)O [RIY, Arginine-Isoleucine-Tyrosine]
Body weight ([1]; adult SHR (SHR-16), day 0 (baseline), CH n=8, RIY n=5-6, VWIS n=5-6): 299 ± 12 g | Body weight [1, 4]: 309 ± 9 g | Body weight [1, 6]: 326 ± 8 g | Body weight [1, 8]: 112 ± 7 g | Body weight [1, 10]: 149 ± 8 g | Body weight [1, 12]: 185 ± 7 g | stability / conversion to dipeptide in the presence of ACE (ACE): more stable in the presence of ACE
